Tested on: 4T1 spontaneous pulmonary metastases
Assay: Adoptive TDLN B cell therapy of 4T1 cancer, first model (WT vs IL-10−/− B cells), enumeration of pulmonary metastatic nodules
Format: in vivo, BALB/c mice
Conditions: IL-2 alone, i.p.
Protocol: In the first model using IL-10^−/− TDLN B cells, healthy BALB/c mice were inoculated with 5×10^4 4 T1 cells into the mammary fat pad to induce spontaneous pulmonary metastases. Fourteen days after tumor inoculation, the tumor-bearing mice were treated with tail vein injection of activated WT or IL-10^−/− 4T1 TDLN B cells. Commencing on the day of the effector B cell transfer, intraperitoneal (i.p.) injections of IL-2 (40,000 IU) (Novartis, Emeryville, Calif.) were administered in 0.5 ml of PBS and continued twice daily for 8 doses. About 2 weeks after B cell transfer, all mice were sacrificed and lungs were harvested for enumeration of spontaneous pulmonary metastatic nodules as previously described (Li, Q., et al., J. Immunol. 2009. 183: 3195-3203; Li, Q., et al., Clin. Cancer Res. 2011. 17: 4987-4995).

IL-2: IL-2 (Novartis) given i.p., 40,000 IU twice daily for 8 doses
reduction in pulmonary metastases compared with PBS-treated controls: modest, but not significant reduction

— patent publication US20170173180A1, “CANCER IMMUNOTHERAPY COMPOSITIONS AND METHODS” (THE REGENTS OF THE UNIVERSITY OF MICHIGAN, priority 2014, published 2017)
